Experimental findings from patent US9999655B2, “Use of MKS inhibitor peptide-containing compositions for treating non-small cell lung cancer with same” (Moerae Matrix, Inc., priority 2015, dated 2018) are described below.

The subject of this assay is 266 human kinases. The format is biochemical. The conditions noted are these: JNK1α1(h); peptide 100 μM. Here is the method:
Every kinase activity measurement was conducted in duplicate.
IC50 (half maximal inhibitory concentrations) value for the MK2 inhibitor peptides identified below was determined using Millipore's IC50 Profiler Express service. […] Specifically, in these assays, a positively charged substrate is phosphorylated with a radiolabeled phosphate group from an ATP if the kinase is not inhibited by an inhibitor peptide. The positively charged substrate then is attracted to a negatively charged filter membrane, quantified with a scintillation counter, and compared to a 100% activity control.

As to “YARAAARQARAKALNRQLGVA (Mammalian) [MMI-0200]”, the “% activity” value stood at 106%.
